{"sequences": {"note": "The chains behind the UniProt entries cited, without tags or fusion partners. Where a name states a change or a piece, a line headed by the entry shows the natural chain unless it says otherwise.", "UniProt P48736": "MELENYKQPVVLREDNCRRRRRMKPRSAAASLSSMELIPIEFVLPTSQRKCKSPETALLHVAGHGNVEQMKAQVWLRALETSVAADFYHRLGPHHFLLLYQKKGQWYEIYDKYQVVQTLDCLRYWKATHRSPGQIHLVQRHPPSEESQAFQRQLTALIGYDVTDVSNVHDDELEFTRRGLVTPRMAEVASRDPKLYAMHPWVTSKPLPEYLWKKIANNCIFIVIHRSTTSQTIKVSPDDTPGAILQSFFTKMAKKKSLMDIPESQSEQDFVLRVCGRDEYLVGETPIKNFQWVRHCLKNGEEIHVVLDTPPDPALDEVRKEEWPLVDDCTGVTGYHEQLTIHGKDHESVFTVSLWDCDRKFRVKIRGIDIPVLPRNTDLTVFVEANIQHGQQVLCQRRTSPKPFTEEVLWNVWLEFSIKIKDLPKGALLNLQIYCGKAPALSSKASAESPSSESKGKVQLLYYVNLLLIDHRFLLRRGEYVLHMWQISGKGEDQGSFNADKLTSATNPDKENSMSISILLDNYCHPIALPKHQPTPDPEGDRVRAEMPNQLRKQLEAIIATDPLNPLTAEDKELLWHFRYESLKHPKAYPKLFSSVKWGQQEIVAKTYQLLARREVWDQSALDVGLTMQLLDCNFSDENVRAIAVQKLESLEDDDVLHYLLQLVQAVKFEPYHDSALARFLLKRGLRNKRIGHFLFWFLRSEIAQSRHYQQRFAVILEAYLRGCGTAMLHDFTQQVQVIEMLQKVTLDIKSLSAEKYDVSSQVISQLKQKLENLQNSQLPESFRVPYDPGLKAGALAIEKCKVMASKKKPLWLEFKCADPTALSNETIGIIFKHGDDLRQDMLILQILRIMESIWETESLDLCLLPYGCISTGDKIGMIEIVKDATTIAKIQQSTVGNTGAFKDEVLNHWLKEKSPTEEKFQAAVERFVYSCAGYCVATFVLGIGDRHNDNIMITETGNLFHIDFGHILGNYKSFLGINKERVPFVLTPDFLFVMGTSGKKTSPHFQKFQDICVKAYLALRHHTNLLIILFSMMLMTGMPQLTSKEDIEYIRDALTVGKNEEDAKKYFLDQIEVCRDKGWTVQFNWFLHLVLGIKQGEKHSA"}, "source": "patent US9505780B2", "about": "“Thienopyranones as kinase and epigenetic inhibitors” (SignalRx Pharmaceuticals, Inc., priority 2014, dated 2016)", "target": "PI3Kγ (Homo sapiens (Human), UniProt P48736)", "assay": "PI3K gamma isoform inhibition", "assay_type": "biochemical", "description": "Inhibitory activity can be determined routinely using known methods and also front commercial vendors offering this service for kinases and bromodomain proteins. […] In vivo, PI3K inhibition can be determined from target tissue biopsies by standard tissue processing to disrupt cells and then performing Western Blot analysis to determine the presence or absence of pAKT (substrate of PI3K) relative to a control sample. The activity of a compound of the invention as an inhibitor of a bromodomain-containing protein, such as a BET protein, such as BRD2, BRD3, BRD4, and/or BRDT, or an isoform or mutant thereof may be determined in vitro, in vivo, or in a cell line. In vitro assays include assays that determine inhibition of bromodomain-containing proteins. Alternatively, inhibitor binding may be determined by running a competition experiment where a provided compound is incubated with a bromodomain-containing protein, such as a BET protein bound to known ligands, labeled or unlabeled. For example, bromodomain inhibition can be determined in vitro using Alpha Screen Technology (http://www.reactionbiology.com/webapps/site/NewsPDFs/Bromodomain%20Assay%20Platform%20for%20Drug%/20Screening%20and%20Discovery.pdf). […]"}
{"smiles": "O=c1cc(N2CCOCC2)oc2c(-c3ccccc3)cccc12", "note": "[LY294002, 2-(4-morpholinyl)-8-phenyl-4H-1-benzopyran-4-one, reference compound]", "values": [{"measurement": "IC50", "result": 1.06, "unit": "µM"}]}
